These results are taken from US8017791B2.

Sequences of proteins named here, by UniProt entry; tags and fusion partners are left off. Residues count along the entry.
UniProt P23977, whole entry: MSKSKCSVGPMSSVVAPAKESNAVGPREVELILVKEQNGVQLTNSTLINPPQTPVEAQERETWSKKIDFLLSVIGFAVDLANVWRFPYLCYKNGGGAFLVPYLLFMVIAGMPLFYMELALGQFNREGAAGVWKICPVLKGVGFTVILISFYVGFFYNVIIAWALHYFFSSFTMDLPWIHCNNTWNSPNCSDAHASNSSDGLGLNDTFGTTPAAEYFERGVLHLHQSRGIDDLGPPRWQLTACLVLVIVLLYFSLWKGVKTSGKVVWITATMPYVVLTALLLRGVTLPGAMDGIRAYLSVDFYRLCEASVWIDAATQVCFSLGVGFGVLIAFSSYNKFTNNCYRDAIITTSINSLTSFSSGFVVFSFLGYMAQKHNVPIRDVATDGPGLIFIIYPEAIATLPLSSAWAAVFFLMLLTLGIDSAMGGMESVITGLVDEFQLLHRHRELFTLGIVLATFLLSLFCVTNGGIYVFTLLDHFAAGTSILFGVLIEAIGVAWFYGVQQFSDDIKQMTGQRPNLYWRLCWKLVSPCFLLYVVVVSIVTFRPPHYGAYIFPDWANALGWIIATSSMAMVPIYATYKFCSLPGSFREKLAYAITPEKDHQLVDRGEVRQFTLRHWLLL
UniProt P31652, whole entry: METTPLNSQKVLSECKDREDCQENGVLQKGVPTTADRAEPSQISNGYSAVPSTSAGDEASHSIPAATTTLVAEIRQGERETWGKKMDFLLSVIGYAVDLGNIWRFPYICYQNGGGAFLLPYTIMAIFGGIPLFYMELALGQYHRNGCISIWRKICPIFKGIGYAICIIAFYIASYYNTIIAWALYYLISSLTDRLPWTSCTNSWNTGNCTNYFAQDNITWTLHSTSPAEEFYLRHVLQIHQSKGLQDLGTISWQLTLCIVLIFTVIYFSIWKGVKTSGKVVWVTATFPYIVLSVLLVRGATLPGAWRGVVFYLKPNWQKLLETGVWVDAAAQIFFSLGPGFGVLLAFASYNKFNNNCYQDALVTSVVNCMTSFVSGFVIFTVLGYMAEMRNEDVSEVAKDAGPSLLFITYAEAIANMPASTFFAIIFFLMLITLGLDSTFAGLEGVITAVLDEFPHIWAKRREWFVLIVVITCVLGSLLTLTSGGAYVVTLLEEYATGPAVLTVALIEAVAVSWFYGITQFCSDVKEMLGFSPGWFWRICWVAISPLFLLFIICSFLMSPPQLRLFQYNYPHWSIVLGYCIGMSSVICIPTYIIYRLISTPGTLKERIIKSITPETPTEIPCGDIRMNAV
UniProt Q9WTR4, 1-597: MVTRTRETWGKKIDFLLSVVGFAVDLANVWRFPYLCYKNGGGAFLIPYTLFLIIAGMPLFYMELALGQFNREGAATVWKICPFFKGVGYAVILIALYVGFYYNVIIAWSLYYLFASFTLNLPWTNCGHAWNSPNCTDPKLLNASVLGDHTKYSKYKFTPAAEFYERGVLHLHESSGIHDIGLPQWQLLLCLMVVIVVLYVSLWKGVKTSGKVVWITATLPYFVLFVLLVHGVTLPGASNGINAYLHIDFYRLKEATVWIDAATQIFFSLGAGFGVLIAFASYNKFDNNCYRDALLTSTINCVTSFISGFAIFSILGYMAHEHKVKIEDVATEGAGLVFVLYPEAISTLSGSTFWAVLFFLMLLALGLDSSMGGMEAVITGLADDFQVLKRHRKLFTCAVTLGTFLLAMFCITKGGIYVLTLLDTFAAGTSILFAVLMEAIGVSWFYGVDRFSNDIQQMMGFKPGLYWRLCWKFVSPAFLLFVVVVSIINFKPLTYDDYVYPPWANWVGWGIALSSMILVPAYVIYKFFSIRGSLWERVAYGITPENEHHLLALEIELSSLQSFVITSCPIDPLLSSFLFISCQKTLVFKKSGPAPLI

Test [1] concerns the target T1, DAT (Rattus norvegicus, UniProt P23977). Nature of the test: Inhibition of [3H]WIN 35,428 binding to DAT. Particulars: read-out: DAT binding, IC50, [3H]Win 35,428.
The target in test [2] is T1, DAT. The test is described as follows: Inhibition of [3H]DA uptake by DAT into rat striatal synaptosomes. Format: biochemical. Particulars: read-out: DAT uptake, IC50 [3H]DA; Table 5.
Test [3] concerns the target T2, SERT (Rattus norvegicus, UniProt P31652). The test is described as follows: SERT uptake inhibition, [3H]5-HT. Format: biochemical. The note with it: read-out: SERT IC50, uptake inhibition value; Table 5, SERT column, footnote b: Uptake inhibition values.
The target of the next test is NET (Rattus norvegicus). The test is described as follows: NET uptake inhibition, [3H]NE. Format: biochemical. The note with it: read-out: NET IC50, uptake inhibition value; Table 5, NET column, footnote b: Uptake inhibition values.
For test [4], the target named is T2, SERT. The test is described as follows: Inhibition of [3H]citalopram binding to SERT. Particulars: read-out: SERT binding, IC50 [3H]citalopram; Table 5.
Another test has as its target NET (Rattus norvegicus, UniProt Q9WTR4). The test is described as follows: Inhibition of [3H]nisoxetine binding to NET. The note with it: read-out: NET binding, IC50 [3H]nisoxetine; Table 5.

Each structure is given as a SMILES string.

For `Fc1ccc(CNC2CCC(OC(c3ccccc3)c3ccccc3)OC2)cc1` (single isomer, unassigned) [63], the 50% inhibitory concentration (IC50) was 420 nM at DAT [1], 158 nM at DAT [2], 1490 nM at SERT [3] and 1490 nM on NET (Rattus norvegicus).

For `Fc1ccc(CN[C@H]2CC[C@@H](CNC(c3ccccc3)c3ccccc3)OC2)cc1` (relative stereo), the IC50 on DAT [1] worked out at 398 nM; at SERT [4], 4400 nM; on NET, 3430 nM; at DAT [2], 215 nM.

Take `Fc1ccc(CNC2CCC(COC(c3ccccc3)c3ccccc3)OC2)cc1` (single isomer, unassigned) [48]: the IC50 on DAT [1] is 80.4 nM; on SERT [4], greater than 10000 nM; on NET, 1330 nM; on DAT [2], 104 nM.

For `Fc1ccc(CNC2CCC(COC(c3ccccc3)c3ccccc3)OC2)cc1` (single isomer, unassigned) [52], the IC50 on DAT [1] was 162 nM; on SERT [4] it was greater than 10000 nM; on NET, 1440 nM; on DAT [2], 165 nM.

As to `Fc1ccc(CNC2CCC(OC(c3ccccc3)c3ccccc3)OC2)cc1` (single isomer, unassigned) [64], the results for the IC50 on DAT [1], at SERT [4] and on NET were 296 nM, 2440 nM and 255 nM, respectively.

A word on the IC50: it is the point on the concentration scale where inhibition reaches its midpoint.
